The source of these data is patent US7105573B2, “Methods and compositions for the treatment of alopecia and other disorders of the pilosebaceous apparatus” (Orentreich Foundation for the Advancement of Science, Inc., priority 2000, dated 2006).

Structures are written as SMILES. Where a name gives a salt, the structure may show the parent alone. Read-outs that look alike come from different tables or passages of the source.

For this data set the following is noted: in 50% SDA and 2% butylene glycol in water.

On to `CN(C)C(=N)N=C(N)N` [Metformin HCl, Metformin hydrochloride], for which the pH of solution is listed as 6.5–7.0. Further, the pH of solution result (hydrochloride) is “neutral pH”.

In turn, `CN(C)C(=N)NC(=N)N` [Metformin base] gave a pH of solution of 13.
